Measured values: PubChem BioAssay AID1530 (NMMLSC, 2009)
Only a part is listed here, and it is no random draw. Some results for these compounds are left out of this collection, so the calls shown say nothing about other tests. Calls of active or inactive are those of the source. Cut-off read from the data, not from the text of the source: active = percent response above about 24% (passing the limit was not always enough); inactive = the rest.

system: MEKK2 (MAP3K2) mutant PB1 domain binding to MEK5, human; assay: MEK5 binding signal on mutant MEKK2 PB1, primary screen, biochemical, multiplex bead flow cytometry, Alexa488-MEK5 (AID 1530); conditions: at 10 µM, hits give high values

How did the percent response turn out when COc1ccc(Br)c(C(=O)NCC2(N3CCCCC3)CCCCC2)c1 was run?
The percent response was inactive: -1%.

How did the percent response turn out when CN(C)c1cccc(C(=O)NCC2(N(C)C)CCCCC2)c1 was run?
Its percent response is inactive: 8%.

For CC(C)Oc1ccc(C(=O)NCC2(N(C)C)CCCCC2)cc1, which percent response is on record?
Its percent response is inactive: 0%.

With O=C(OC1CN2CCC1CC2)C(CO)(c1ccccc1)c1ccccc1 (centres undefined) as the molecule, how does the percent response read?
Its percent response is inactive: 1%.

For COc1ccc(Cl)cc1C(=O)NCC1(N(C)C)CCCCC1, which percent response is on record?
Its percent response is inactive: 6%.

Which percent response does the source give for COc1cccc(C(=O)NCC2(N3CCCCC3)CCCCC2)c1 here?
The percent response was inactive: -2%.

O=C(NCC1(N2CCCCC2)CCCCC1)c1cccc(Cl)c1 was tested. Which percent response did it give?
Its percent response is inactive: -6%.

With CN(C)C1(CNC(=O)c2ccc(Br)cc2)CCCCC1 as the molecule, how does the percent response read?
The percent response was inactive: 4%.

Which percent response does the source give for COc1cc(C(=O)NCC2(N(C)C)CCCCC2)c([N+](=O)[O-])cc1OC here?
The percent response was inactive: -3%.

For O=C(NCC1(N2CCCCC2)CCCCC1)c1cc(F)c(F)cc1Cl, which percent response is on record?
Its percent response is inactive: -4%.

How did the percent response turn out when C=CCN1CCN(CCOC(=O)C(O)(c2ccccc2)c2ccccc2)CC1 was run?
The percent response was inactive: 2%.

For O=C(NCC1(N2CCCCC2)CCCCC1)c1cccc(Br)c1, which percent response is on record?
The percent response was inactive: -2%.

How did the percent response turn out when CCN1CCCC(OC(=O)C2(O)c3ccccc3C=Cc3ccccc32)C1 (centres undefined) was run?
Its percent response is inactive: -2%.

How did the percent response turn out when Cc1cc(C(=O)NCC2(N3CCCCC3)CCCCC2)ccc1[N+](=O)[O-] was run?
Its percent response is inactive: 9%.

How did the percent response turn out when COc1ccc(C(=O)NCC2(N(C)C)CCCCC2)cc1 was run?
The percent response was inactive: 1%.

CN(C)c1ccc(C(=O)NCC2(N(C)C)CCCCC2)cc1 was tested. Which percent response did it give?
The percent response was inactive: 8%.

For CN(C)C1CCCC1OC(=O)C(O)(c1ccccc1)c1ccccc1 (centres undefined), which percent response is on record?
The percent response was inactive: 3%.

With Cc1ccccc1C(=O)NCC1(N2CCCCC2)CCCCC1 as the molecule, how does the percent response read?
The percent response was inactive: -7%.

With CC(C)N1C(=O)CC2(CCN(CCOC(=O)C(O)(c3ccccc3)c3ccccc3)CC2)C1=O as the molecule, how does the percent response read?
The percent response was inactive: 2%.

How did the percent response turn out when COc1cc(SC)ccc1C(=O)NCC1(N(C)C)CCCCC1 was run?
The percent response was inactive: 6%.

With CCN(CC)CC(C)C(C)OC(=O)C(O)(c1ccccc1)c1ccccc1 (centres undefined) as the molecule, how does the percent response read?
The percent response was inactive: -2%.

How did the percent response turn out when Cc1ccc(C(=O)NCC2(N3CCCCC3)CCCCC2)cc1 was run?
The percent response was inactive: 0%.

How did the percent response turn out when O=C(NCC1(N2CCCCC2)CCCCC1)c1cc([N+](=O)[O-])ccc1Cl was run?
Its percent response is inactive: -19%.

With CN1[C@@H]2CC[C@H]1CC(OC(=O)C(O)(c1ccccc1)c1ccccc1)C2 (some centres undefined) as the molecule, how does the percent response read?
The percent response was inactive: 6%.
